Reference: patent EP4810521A1, “ANTI-EGFR AND -HER3 BISPECIFIC ANTIBODY-DRUG CONJUGATE AND USE THEREOF” (priority 2023, dated 2025)

Tests used:
[1] = tested on: human breast cancer cells MDA-MB-453; assay: In vitro cell killing assay (CTG); type: cell-based; settings: MDA-MB-453, 5 days, Example 14
[2] = tested on: NCI-H1568 tumor-bearing mouse model; assay: Anti-tumor effect in NCI-H1568 tumor-bearing mouse model; type: in vivo, BALB/c-NUDE mice; settings: NCI-H1568, 10 mg/kg QWx3 intraperitoneal injection, day 30
From the text: In the present experiment, the BALB/c NUDE mice inoculated with NCI-H1568 cells were used for determining the anti-tumor effect of the EGFR/HER3-ADCs.
(§1) The female BALB/c-NUDE mice were purchased from Beijing Vital River Laboratory Animal Technology Co., Ltd, with the grade of SPF, the quality control department is Beijing Vital River Laboratory Animal Technology Co., Ltd, and the certificate number was NO. 110011230103807467. The mice were domesticated for 3 days after arrival, and then the study began.
NCI-H1568 cells were purchased from Nanjing Cobioer Biotechnology Co., Ltd. and routinely subcultured in strict accordance with the instructions for subsequent in vivo experiments. […]
(§2) Tumor volume of each mouse was measured 11 days after tumor cell inoculation, the mice with tumor volumes about 200 mm^3 were selected and grouped on average according to their tumor volume (7 mice per group). […] Administrations were conducted on day 11, 18 and 27 after inoculation respectively, and tumor volume and body weight of mice were monitored twice a week. […] Measurement of tumor volume: the maximum long axis (L) and maximum wide axis (W) of the tumor were measured using a vernier caliper, and the tumor volume was calculated as follows: V=L×W^2/2. Body weight was measured using an electronic balance. […]

[3] = tested on: human breast cancer cells MCF7; assay: In vitro cell killing assay (CTG); type: cell-based; settings: MCF7, 5 days
Method: After 2-3 passages of the resurrected MCF7 cells, the culture medium was poured out firstly, rinsed with 10 mL PBS once, then the cells were digested with 4mL trypsin, the culture medium was terminated before centrifuged at 400xg for 3min, the supernatant was discarded, and the culture medium was further resuspended for counting. The cell density was adjusted to 3E4/mL, 50 µL of which per well was added into a round bottom low adsorption 96-well plate. The antibody to be detected was diluted in a gradient manner, then 50 µL of which per well was added into the corresponding cells, cultured at 37 °C for 5 days, then the 96-well plate was taken out, the plate was balanced to room temperature, 100 µL of CTG detection solution was added into each well, placed at a shaker at 300 rpm for 20 min, 100 µL of which was absorbed and placed into the white bottom 96-well plate, and the luminescence value was detected by using a multifunctional microplate reader.

[4] = tested on: H508 tumor-bearing mouse model; assay: Anti-tumor effect in H508 tumor-bearing mouse model; type: in vivo, BALB/c NUDE mice; settings: H508, 10 mg/kg QWx2 intraperitoneal injection, day 55
From the text: In the present experiment, the BALB/c NUDE mice inoculated with H508 cells were used for determining the anti-tumor effect of the EGFR/HER3-ADCs.
as §1, with “BALB/c NUDE background” for “BALB/c-NUDE”
H508 cells were purchased from Nanjing Cobioer (CAT#: CBP60795) and routinely subcultured in strict accordance with the instructions for subsequent in vivo experiments. […]
Tumor volume of each mouse was measured 37 days after tumor cell inoculation, the mice with tumor volumes between about 120-140 mm^3 were selected and grouped on average according to their tumor volume (6 mice per group). […] Administrations were conducted on day 37 and day 44 after inoculation respectively, and the tumor volume and body weight of mice were monitored twice a week. […] Measurement of tumor volume: the maximum long axis (L) and maximum wide axis (W) of the tumor were measured using a vernier caliper, and the tumor volume was calculated as follows: V=L×W^2/2. Body weight was measured using an electronic balance. […]

[5] = tested on: NUGC-4 tumor-bearing mouse model; assay: Anti-tumor effect in NUGC-4 tumor-bearing mouse model; type: in vivo, BALB/c-NUDE mice; settings: NUGC-4, 10 mg/kg single dose intraperitoneal injection, day 32
From the text: In the present experiment, the BALB/c NUDE mice inoculated with NUGC-4 cells were used for determining the anti-tumor effect of the EGFR/HER3-ADCs.
as §1, with “NO.110011230103807533.” for “NO. 110011230103807467.”
NUGC-4 cells were purchased from NIBIOHN (CAT #: JCRB0834) and routinely subcultured in strict accordance with the instructions for subsequent in vivo experiments. […]
Tumor volume of each mouse was measured 13 days after tumor cell inoculation, the mice with tumor volumes about 200 mm^3 were selected and grouped on average according to their tumor volume (7 mice per group). […] Administrations were conducted on day 13 after inoculation respectively, and the tumor volume and body weight of mice were monitored twice a week. Body weight and tumor volume were measured before each dose, and the relative tumor growth inhibition (TGI%) was calculated on day 32 after inoculation, the calculating formula was as follows: TGI% =100% * (tumor volume of control group - tumor volume of treatment group)/ (tumor volume of control group - tumor volume of control group before administration). […]

[6] = tested on: ASPC1 tumor-bearing mouse model; assay: Anti-tumor effect in ASPC1 tumor-bearing mouse model; type: in vivo, BALB/c-NUDE mice; settings: ASPC1, 10 mg/kg QWx3 intraperitoneal injection, day 28
From the text: In the present experiment, the BALB/c NUDE mice inoculated with ASPC1 cells were used for determining the anti-tumor effect of the EGFR/HER3-ADCs.
The female BALB/c-NUDE mice were purchased from Beijing Vital River Laboratory Animal Technology Co., Ltd, with the grade of SPF, the quality control department is Beijing Vital River Laboratory Animal Technology Co., Ltd, and the certificate number was 20230531Abzz0619000787. The mice purchased from Vital River laboratory mice were domesticated for 3 days after arrival, and then the study began. […]
Tumor volume of each mouse was measured 7 days after tumor cell inoculation, the mice with tumor volumes about 200 mm^3 were selected and grouped on average according to their tumor volume (7 mice per group). […] Administrations were conducted on day 7, 14 and 21 after inoculation respectively, and the tumor volume and body weight of mice were monitored twice a week. Body weight and tumor volume were measured before each dose, and the relative tumor growth inhibition (TGI%) was calculated on day 28 after inoculation, the calculating formula was as follows: TGI% =100% * (tumor volume of control group - tumor volume of treatment group)/ (tumor volume of control group - tumor volume of control group before administration). […] Body weight was measured using an electronic balance. […]

[7] = target: human EGFR (Homo sapiens, UniProt P00533); assay: ELISA detection of affinity; type: binding; settings: EGFR antigen coated 0.25 µg/mL
Method: (§3) A 96-well enzyme label plate was coated one day in advance, EGFR or HER3 antigen was diluted to 0.25 µg/mL by using coating solution, then 100 µL of which was added into each well, the plate was sealed by a plate film, and placed at 4 °C overnight; the pre-coating solution in the 96-well enzyme label plate was poured out, patted dry on absorbent paper, 230 µL of washing solution was added into each well, and washed for 3 times repeatedly after patting dry the washing solution; 200 µL of blocking solution was added into each well by the multichannel pipette gun, the plate was sealed by a microplate sealer, blocked at 37 °C for 2h, then the plate was washed; the sample to be detected was diluted at the maximum concentration of 100 nM and a ratio of 1:4 into 12 wells, and then 100 µL of dilutions was added into each well, incubated at room temperature for 2 hours in the dark, the plate was washed, 100µL of Goat anti-Human IgG Fc-HRP diluting at 1:80000 was added into each well, incubated at room temperature for 1 hour in the dark, and the plate was washed; 100 µL of TMB substrate was added into a 96-well enzyme label plate, developed for 2-5 minutes at room temperature in a dark, then 50 µL of ELISA stop solution was added into each well, and the values of OD450nm and OD620nm were read within 30 minutes.

[8] = target: human HER3 (Homo sapiens, UniProt P21860); assay: ELISA detection of affinity; type: binding
Method: as §3

[9] = tested on: SW620 tumor-bearing mouse model; assay: Anti-tumor effect in SW620 tumor-bearing mouse model; type: in vivo, BALB/c-NUDE mice; settings: SW620, 10 mg/kg QWx3 intraperitoneal injection, day 42
From the text: In the present experiment, the BALB/c NUDE mice inoculated with SW620 cells were used for determining the anti-tumor effect of the EGFR/HER3-ADCs.
as §1, with “20230614Abzz0619000190.” for “NO. 110011230103807467.”
SW620 cells were obtained Nanjing Cobioer Biotechnology Co., Ltd. The cells were collected by centrifugation, resuspended in sterile PBS and adjusted to a cell density of 10×10^6 cells/ml. […]
as §2, with “14” for “11”, “14, 21” for “11, 18”, “28” for “27”

Substance SIB001-DXd [reference compound] has an IC50 [1] of 9.36 nM, a TGI [2] of 61% and a Tumor volume [2] of 480 mm^3. It also gave an IC50 [3] of 13.2 nM, a TGI [4] of 155% and a Tumor volume [4] of 30 mm^3. The TGI [5] was 70%, the Tumor volume [5] was 457 mm^3 and the TGI [6] was 67%. The Tumor volume [6] was 347 mm^3, the Kd [7] was 0.0883 nM and the “binding to HER3” value [8] was “weak binding to HER3”. For the same substance, the TGI [9] was 39% and the Tumor volume [9] was 1235 mm^3.
